The target in one assay is DAT (Rattus norvegicus, UniProt P23977). Put plainly: DAT-mediated [3H]DA release assay in rat brain synaptosomes. The class given is biochemical. Conditions: relative to methcathinone 1.
The target of the next assay is SERT (Rattus norvegicus, UniProt P31652). The assay is described as follows: SERT-mediated [3H]5-HT release assay in rat brain synaptosomes. Format: biochemical. The note with it: relative to methcathinone 1.

The chains behind the UniProt entries cited, without tags or fusion partners.
UniProt P23977, whole entry: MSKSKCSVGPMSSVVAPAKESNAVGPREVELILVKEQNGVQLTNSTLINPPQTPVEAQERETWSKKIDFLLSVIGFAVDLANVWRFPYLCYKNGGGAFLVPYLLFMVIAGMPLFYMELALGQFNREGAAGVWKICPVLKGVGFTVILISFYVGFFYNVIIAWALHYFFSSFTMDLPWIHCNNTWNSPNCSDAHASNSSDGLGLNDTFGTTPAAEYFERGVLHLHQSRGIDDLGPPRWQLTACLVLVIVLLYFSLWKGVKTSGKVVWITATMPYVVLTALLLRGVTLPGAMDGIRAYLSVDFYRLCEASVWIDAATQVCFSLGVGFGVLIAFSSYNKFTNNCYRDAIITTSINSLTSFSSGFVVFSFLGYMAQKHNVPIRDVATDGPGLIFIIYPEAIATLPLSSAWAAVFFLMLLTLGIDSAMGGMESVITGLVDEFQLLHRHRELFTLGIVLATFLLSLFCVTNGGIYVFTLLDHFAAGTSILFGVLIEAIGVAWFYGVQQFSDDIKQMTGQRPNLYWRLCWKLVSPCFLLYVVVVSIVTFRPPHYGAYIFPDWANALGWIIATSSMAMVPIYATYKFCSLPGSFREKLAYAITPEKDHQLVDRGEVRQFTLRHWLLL
UniProt P31652, whole entry: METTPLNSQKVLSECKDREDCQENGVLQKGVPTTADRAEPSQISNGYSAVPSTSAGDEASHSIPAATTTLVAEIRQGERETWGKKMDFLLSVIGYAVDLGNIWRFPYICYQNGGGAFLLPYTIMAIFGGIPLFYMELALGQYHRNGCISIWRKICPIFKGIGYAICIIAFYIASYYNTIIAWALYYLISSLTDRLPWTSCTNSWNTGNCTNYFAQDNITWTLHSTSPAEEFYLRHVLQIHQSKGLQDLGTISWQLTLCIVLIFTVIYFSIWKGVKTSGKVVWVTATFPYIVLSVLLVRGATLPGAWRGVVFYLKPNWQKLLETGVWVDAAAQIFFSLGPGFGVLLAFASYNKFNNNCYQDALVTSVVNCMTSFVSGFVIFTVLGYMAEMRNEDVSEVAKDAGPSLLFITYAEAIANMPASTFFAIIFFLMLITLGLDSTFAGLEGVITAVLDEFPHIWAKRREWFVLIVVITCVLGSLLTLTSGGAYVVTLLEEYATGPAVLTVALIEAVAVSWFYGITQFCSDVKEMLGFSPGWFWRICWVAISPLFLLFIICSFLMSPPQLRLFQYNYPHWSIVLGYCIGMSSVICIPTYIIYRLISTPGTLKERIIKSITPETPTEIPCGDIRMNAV

With `CNC(C)C(=O)c1ccc(OC)cc1` (centres unmarked) [Compound 25], the “fold less potent at DA release (DAT) compared to 1” value on DAT is listed as 18 fold. Also, the “fold more potent at 5-HT release (SERT) compared to 1” value on SERT was 22 fold.
